Data on one variant can be found in paper PMC11753436.

B1: Tau RD(LM)-CFP [human] / Tau RD(LM)-YFP [human] (parent)
chain 1: QTAPVPMPDLKNVKSKIGSTENLKHQPGGGKVQIINKKLDLSNVQSKCGSKDNIKHVLGGGSVQIVYKPVDLSKVTSKCGSLGNIHHKPGGGQMEVKSEKLDFKDRVQSKIGSLDNITHVPGGGNKKIETHK
chain 2: B1 chain 1

One assay covers variants of B1. The assay can be described thus: flow cytometry FRET incorporation assay in DS13 cells. The settings on record: with Tau RD(LM)-YFP [human]; 24 hours after lentiviral transduction; parent: 190; read off a plot. On the technique in general: Flow cytometry measures light scatter and fluorescence of single cells or particles in a stream.
In the case of chain 1 I34P I65P, the response stood at 70 MFI.

The assay is the same for the next values; noted with them: with Tau RD(LM)-YFP [human]; 48 hours after lentiviral transduction; parent: 250; read off a plot.
Regarding chain 1 I34P I65P, the response stood at 70 MFI.

Staying with this assay, now noted: with Tau RD(LM)-YFP [human]; 72 hours after lentiviral transduction; parent: 230; read off a plot.
For the variant chain 1 I34P I65P, the response amounted to 63 MFI.
